In PubChem BioAssay (NCI):
Some of these compounds have results that are not shown, active ones among them.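 1) Cells in 96-well plates. 2) Compound, 48 h, 5 concentrations. 3) Linear interpolation between surrounding doses. 4) Unreached endpoint = highest concentration. Here, GI50 denotes the concentration required for 50% inhibition of growth. TGI: concentration producing complete growth inhibition.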

Experiments:
Experiment in all cases: DTP human tumour cell line panel, 48 h; in the data active = GI50 below about 0.43 µM; inactive = the rest
OVCAR-5 ovarian = tested on: OVCAR-5 ovarian
HOP-92 NSCLC = tested on: HOP-92 NSCLC
RXF 393 renal = tested on: RXF 393 renal
NCI/ADR-RES ovarian = tested on: NCI/ADR-RES ovarian
SNB-19 CNS = tested on: SNB-19 CNS
HCT-116 colon = tested on: HCT-116 colon
K-562 leukemia = tested on: K-562 leukemia
UO-31 renal = tested on: UO-31 renal
SK-MEL-28 melanoma = tested on: SK-MEL-28 melanoma
HOP-62 NSCLC = tested on: HOP-62 NSCLC
T-47D breast = tested on: T-47D breast
MDA-N = tested on: MDA-N
UACC-62 melanoma = tested on: UACC-62 melanoma
MDA-MB-231 breast = tested on: MDA-MB-231 breast
SF-295 CNS = tested on: SF-295 CNS
SW-620 colon = tested on: SW-620 colon
SK-MEL-5 melanoma = tested on: SK-MEL-5 melanoma
HCT-15 colon = tested on: HCT-15 colon
SF-268 CNS = tested on: SF-268 CNS
LOX IMVI melanoma = tested on: LOX IMVI melanoma
CAKI-1 renal = tested on: CAKI-1 renal
COLO 205 colon = tested on: COLO 205 colon
HS 578T breast = tested on: HS 578T breast
SK-OV-3 ovarian = tested on: SK-OV-3 ovarian
EKVX NSCLC = tested on: EKVX NSCLC
NCI-H23 lung = tested on: NCI-H23 lung
TK-10 renal = tested on: TK-10 renal
MCF7 breast = tested on: MCF7 breast
KM12 colon = tested on: KM12 colon
SN12C renal = tested on: SN12C renal
MOLT-4 leukemia = tested on: MOLT-4 leukemia
ACHN renal = tested on: ACHN renal
SNB-75 CNS = tested on: SNB-75 CNS
NCI-H522 lung = tested on: NCI-H522 lung
BT-549 breast = tested on: BT-549 breast
PC-3 prostate = tested on: PC-3 prostate
SK-MEL-2 melanoma = tested on: SK-MEL-2 melanoma
SF-539 CNS = tested on: SF-539 CNS
NCI-H460 lung = tested on: NCI-H460 lung
A549 NSCLC = tested on: A549 NSCLC
CCRF-CEM leukemia = tested on: CCRF-CEM leukemia
U251 CNS = tested on: U251 CNS
UACC-257 melanoma = tested on: UACC-257 melanoma
SR leukemia = tested on: SR leukemia
786-0 renal = tested on: 786-0 renal
MALME-3M melanoma = tested on: MALME-3M melanoma
NCI-H322M lung = tested on: NCI-H322M lung
IGROV1 ovarian = tested on: IGROV1 ovarian
HCC-2998 colon = tested on: HCC-2998 colon
OVCAR-3 ovarian = tested on: OVCAR-3 ovarian
HL-60(TB) leukemia = tested on: HL-60(TB) leukemia
HT29 colon = tested on: HT29 colon
OVCAR-8 ovarian = tested on: OVCAR-8 ovarian
MDA-MB-435 = tested on: MDA-MB-435
NCI-H226 lung = tested on: NCI-H226 lung
M14 melanoma = tested on: M14 melanoma
OVCAR-4 ovarian = tested on: OVCAR-4 ovarian
DU-145 prostate = tested on: DU-145 prostate
A498 renal = tested on: A498 renal

CC(Cl)CN(C)CC(C)Cl (stereo not drawn)
14.8 µM: TGI (NCI-H460 lung)
inactive: GI50 (OVCAR-5 ovarian) > 100 µM | GI50 (HOP-92 NSCLC) 20.1 µM | GI50 (RXF 393 renal) 38.4 µM | GI50 (NCI/ADR-RES ovarian) 69.7 µM | GI50 (SNB-19 CNS) > 100 µM | GI50 (HCT-116 colon) 42.2 µM | GI50 (K-562 leukemia) > 100 µM | GI50 (UO-31 renal) 16.4 µM | GI50 (SK-MEL-28 melanoma) > 100 µM | GI50 (HOP-62 NSCLC) > 100 µM | GI50 (T-47D breast) 14.3 µM | GI50 (MDA-N) > 100 µM | GI50 (UACC-62 melanoma) 43.1 µM | GI50 (MDA-MB-231 breast) > 100 µM | GI50 (SF-295 CNS) 58.9 µM | GI50 (SW-620 colon) > 100 µM | GI50 (SK-MEL-5 melanoma) > 100 µM | GI50 (HCT-15 colon) 38.5 µM | GI50 (SF-268 CNS) 37.6 µM | GI50 (LOX IMVI melanoma) 24.5 µM | GI50 (CAKI-1 renal) 8.38 µM | GI50 (COLO 205 colon) 49.6 µM | GI50 (HS 578T breast) > 100 µM | GI50 (SK-OV-3 ovarian) > 100 µM | GI50 (EKVX NSCLC) 86.7 µM | GI50 (NCI-H23 lung) 26.9 µM | GI50 (TK-10 renal) > 100 µM | GI50 (MCF7 breast) 27.3 µM | GI50 (KM12 colon) > 100 µM | GI50 (SN12C renal) 14.8 µM | GI50 (MOLT-4 leukemia) 3.28 µM | GI50 (ACHN renal) 5.83 µM | GI50 (SNB-75 CNS) 39.9 µM | GI50 (NCI-H522 lung) 13.9 µM | GI50 (BT-549 breast) > 100 µM | GI50 (PC-3 prostate) > 100 µM | GI50 (SK-MEL-2 melanoma) > 100 µM | GI50 (SF-539 CNS) 32.8 µM | GI50 (NCI-H460 lung) 2.67 µM | GI50 (A549 NSCLC) 14.4 µM | GI50 (CCRF-CEM leukemia) 3.97 µM | GI50 (U251 CNS) 37.7 µM | GI50 (UACC-257 melanoma) > 100 µM | GI50 (SR leukemia) 2.3 µM | GI50 (786-0 renal) 25.7 µM | GI50 (MALME-3M melanoma) 27.4 µM | GI50 (NCI-H322M lung) > 100 µM | GI50 (IGROV1 ovarian) 48.4 µM | GI50 (HCC-2998 colon) 66.4 µM | GI50 (OVCAR-3 ovarian) > 100 µM | GI50 (HL-60(TB) leukemia) 8.35 µM | GI50 (HT29 colon) 81.5 µM | GI50 (OVCAR-8 ovarian) > 100 µM | GI50 (MDA-MB-435) > 100 µM | GI50 (NCI-H226 lung) > 100 µM | GI50 (M14 melanoma) 37.4 µM | GI50 (OVCAR-4 ovarian) > 100 µM | GI50 (DU-145 prostate) 33.4 µM | GI50 (A498 renal) > 100 µM
> 100 µM: TGI (OVCAR-5 ovarian) | TGI (HOP-92 NSCLC) | TGI (RXF 393 renal) | TGI (NCI/ADR-RES ovarian) | TGI (SNB-19 CNS) | TGI (HCT-116 colon) | TGI (K-562 leukemia) | TGI (UO-31 renal) | TGI (SK-MEL-28 melanoma) | TGI (HOP-62 NSCLC) | TGI (T-47D breast) | TGI (MDA-N) | TGI (UACC-62 melanoma) | TGI (MDA-MB-231 breast) | TGI (SF-295 CNS) | TGI (SW-620 colon) | TGI (SK-MEL-5 melanoma) | TGI (HCT-15 colon) | TGI (SF-268 CNS) | TGI (LOX IMVI melanoma) | TGI (CAKI-1 renal) | TGI (COLO 205 colon) | TGI (HS 578T breast) | TGI (SK-OV-3 ovarian) | TGI (EKVX NSCLC) | TGI (NCI-H23 lung) | TGI (TK-10 renal) | TGI (MCF7 breast) | TGI (KM12 colon) | TGI (SN12C renal) | TGI (MOLT-4 leukemia) | TGI (ACHN renal) | TGI (SNB-75 CNS) | TGI (BT-549 breast) | TGI (PC-3 prostate) | TGI (SK-MEL-2 melanoma) | TGI (SF-539 CNS) | TGI (A549 NSCLC) | TGI (U251 CNS) | TGI (UACC-257 melanoma) | TGI (SR leukemia) | TGI (786-0 renal) | TGI (MALME-3M melanoma) | TGI (NCI-H322M lung) | TGI (IGROV1 ovarian) | TGI (HCC-2998 colon) | TGI (OVCAR-3 ovarian) | TGI (HL-60(TB) leukemia) | TGI (HT29 colon) | TGI (OVCAR-8 ovarian) | TGI (MDA-MB-435) | TGI (NCI-H226 lung) | TGI (M14 melanoma) | TGI (OVCAR-4 ovarian) | TGI (DU-145 prostate) | TGI (A498 renal)
40.2 µM: TGI (CCRF-CEM leukemia)
39.9 µM: TGI (NCI-H522 lung)
